Laboratory results published in patent US10919941B2, “Functional lipid constructs” (KODE BIOTECH LIMITED, priority 2007, dated 2021).

Tested on: spermatozoa
Conditions: construct 0.1 mg/mL
Protocol: Spermatozoa were washed and isolated by layering 1.1 mL of fresh semen over a gradient of SpermGrad 125 (Vitrolife 10099; 2 mL of 40% solution over 2 mL of 80% solution in a 15 mL round bottom tube) and centrifuging at 500×g for 20 min.
The bottom layer of the gradient (c. 0.7 mL was transferred to 4 mL round bottom tubes and c. 2 mL flushing (handling) media (Medicult 10840125A) added. The tube was centrifuged at 300×g for 10 min and the spermatozoa washed two more times (mixing by tube inversion).
Samples of washed spermatozoa were incubated overnight at 37° C. in a 5% CO2 atmosphere.
Open tubes were incubated at 37° C. in a 5% CO2 atmosphere prior to addition of c. 70 μL spermatozoa (c. 25×10^6/mL) to each tube and incubation for 120 min (A), 60 min (B), 30 min (C), 10 min […] and 120 min (E).
Following incubation a couple of drops of flushing media were added and the tubes centrifuged at 300×g for 5 min. The spermatozoa were washed two more times with flushing media and before being re-suspended in culture media to a final volume of 100 μL.
Streptavidin beads at a concentration of c. 6.25×10^6/100 μL were diluted 35 times in BSA plus flushing media to provide a ratio of 0.1 beads/spermatozoa when mixed in equal volume with a diluted suspension of the modified spermatozoa. […]
The assessment of the attachment of streptavidin beads to modified spermatozoa is recorded in Table 27.

Biotin-CMG(2)-Ad-DOPE
motile capacity of spermatozoa after attachment of streptavidin beads: retain motile capacity
